Assay results taken from patent US7402706B2, “Polyisoprenylated benzophenones and their isomers as inhibitors of histone acetyltransferases and uses thereof” (priority 2003, dated 2008).

The chains behind the UniProt entries cited, without tags or fusion partners.
UniProt Q09472, whole entry: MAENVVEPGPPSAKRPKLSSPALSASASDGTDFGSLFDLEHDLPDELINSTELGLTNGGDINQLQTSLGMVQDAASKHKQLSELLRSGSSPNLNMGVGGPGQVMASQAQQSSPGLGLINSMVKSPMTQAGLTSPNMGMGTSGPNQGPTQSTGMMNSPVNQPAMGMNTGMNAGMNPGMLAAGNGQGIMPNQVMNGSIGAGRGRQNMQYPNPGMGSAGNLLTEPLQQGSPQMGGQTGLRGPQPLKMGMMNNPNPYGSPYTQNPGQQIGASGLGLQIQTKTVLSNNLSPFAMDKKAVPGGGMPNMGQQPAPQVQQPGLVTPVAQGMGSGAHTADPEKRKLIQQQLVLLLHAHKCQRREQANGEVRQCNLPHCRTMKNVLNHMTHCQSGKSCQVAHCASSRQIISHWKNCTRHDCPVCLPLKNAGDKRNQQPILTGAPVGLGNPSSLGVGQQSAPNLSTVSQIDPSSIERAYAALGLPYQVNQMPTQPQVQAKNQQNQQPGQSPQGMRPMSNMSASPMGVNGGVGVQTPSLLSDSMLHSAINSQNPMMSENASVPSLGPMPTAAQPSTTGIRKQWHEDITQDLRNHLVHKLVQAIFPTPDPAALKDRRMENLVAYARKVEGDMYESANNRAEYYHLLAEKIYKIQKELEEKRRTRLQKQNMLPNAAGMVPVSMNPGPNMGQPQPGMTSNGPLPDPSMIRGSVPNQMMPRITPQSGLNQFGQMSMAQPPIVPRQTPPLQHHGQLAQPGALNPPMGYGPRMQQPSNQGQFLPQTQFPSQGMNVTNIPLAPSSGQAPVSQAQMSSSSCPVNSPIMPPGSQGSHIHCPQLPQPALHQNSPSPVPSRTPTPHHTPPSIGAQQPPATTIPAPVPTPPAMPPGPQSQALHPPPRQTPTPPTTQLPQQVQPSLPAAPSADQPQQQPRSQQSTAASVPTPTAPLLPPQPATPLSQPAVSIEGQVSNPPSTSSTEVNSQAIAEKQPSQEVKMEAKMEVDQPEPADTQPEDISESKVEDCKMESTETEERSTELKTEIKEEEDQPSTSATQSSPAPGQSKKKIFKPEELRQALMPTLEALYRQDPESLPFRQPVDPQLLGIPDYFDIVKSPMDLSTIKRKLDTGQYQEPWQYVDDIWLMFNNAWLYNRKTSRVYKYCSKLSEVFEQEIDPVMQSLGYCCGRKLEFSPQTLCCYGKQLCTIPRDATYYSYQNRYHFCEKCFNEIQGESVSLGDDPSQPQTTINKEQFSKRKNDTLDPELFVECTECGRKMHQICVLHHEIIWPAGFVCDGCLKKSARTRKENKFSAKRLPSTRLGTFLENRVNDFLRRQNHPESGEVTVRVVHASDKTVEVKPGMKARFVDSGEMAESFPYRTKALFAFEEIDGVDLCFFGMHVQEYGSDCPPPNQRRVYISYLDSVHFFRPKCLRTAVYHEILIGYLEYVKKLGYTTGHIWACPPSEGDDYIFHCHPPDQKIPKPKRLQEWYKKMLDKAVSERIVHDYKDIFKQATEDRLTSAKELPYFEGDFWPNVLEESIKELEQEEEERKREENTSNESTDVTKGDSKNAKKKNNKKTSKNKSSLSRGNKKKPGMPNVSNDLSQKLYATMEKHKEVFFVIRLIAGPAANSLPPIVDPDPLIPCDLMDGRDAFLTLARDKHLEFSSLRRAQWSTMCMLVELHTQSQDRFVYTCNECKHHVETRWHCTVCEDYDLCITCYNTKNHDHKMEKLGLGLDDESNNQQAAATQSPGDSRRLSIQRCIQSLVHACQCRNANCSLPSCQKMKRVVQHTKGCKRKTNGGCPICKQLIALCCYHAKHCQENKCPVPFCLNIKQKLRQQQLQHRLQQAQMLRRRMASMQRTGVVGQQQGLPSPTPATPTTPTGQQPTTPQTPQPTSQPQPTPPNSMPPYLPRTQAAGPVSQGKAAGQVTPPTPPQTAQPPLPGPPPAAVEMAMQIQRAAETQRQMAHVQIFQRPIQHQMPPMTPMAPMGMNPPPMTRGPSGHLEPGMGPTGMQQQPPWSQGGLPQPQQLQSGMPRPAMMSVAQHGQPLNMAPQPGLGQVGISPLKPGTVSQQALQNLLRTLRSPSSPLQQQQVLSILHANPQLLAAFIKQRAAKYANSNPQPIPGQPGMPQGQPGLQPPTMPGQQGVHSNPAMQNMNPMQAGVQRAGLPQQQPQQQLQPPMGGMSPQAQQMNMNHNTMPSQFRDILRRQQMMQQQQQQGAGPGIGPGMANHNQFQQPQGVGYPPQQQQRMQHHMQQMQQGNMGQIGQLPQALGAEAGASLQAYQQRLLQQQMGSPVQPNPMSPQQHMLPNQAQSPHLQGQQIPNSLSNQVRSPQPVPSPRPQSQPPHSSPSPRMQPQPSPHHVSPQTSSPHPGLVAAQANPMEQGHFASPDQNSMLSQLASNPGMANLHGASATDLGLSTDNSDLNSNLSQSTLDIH

Molecular target: p300 (Homo sapiens, UniProt Q09472)
Assay: Histone acetyl transferase (HAT) assay, p300
Type: biochemical

Substance: 3-(3,4-Dihydroxy-benzoyl)-4-hydroxy-5-(2-isopropenyl-4-methyl -pent-3-enyl)-8,8-dimethyl-1-(3-methyl-but-2-enyl)-7-(4-methyl-pent-3-enyl) -bicyclo[3.3.1]non-3-ene-2,9-dione [garcinol]
- overall type of inhibition of p300 (kinetic analysis): mixed type of inhibitor
- p300 mediated acetylation of histone H3 (20 μM garcinol): could not abolish
- [3H]-labelled histone H3 still detected (20 μM garcinol, SDS-PAGE and fluorography): 5-10%
- type of inhibition of p300, changing concentration of core histones (constant [3H]-acetyl CoA): competitive inhibitor
- type of inhibition of p300, changing concentration of acetyl CoA (constant core histones): uncompetitive type of inhibitor
- IC50 (recombinant p300, HeLa core histones as substrate, filter binding, read-out: IC50 for p300 acetyltransferase activity): ~7 µM
